Measured values: US6492416B1, “4,5-diaryl-3(2H)-furanone derivatives as cyclooxygenase-2 inhibitors” (Pacific Corporation, priority 1999, dated 2002)

Molecular target: T1, COX-2 (Mus musculus, UniProt Q05769)
T1 sequence (Q05769 18-604): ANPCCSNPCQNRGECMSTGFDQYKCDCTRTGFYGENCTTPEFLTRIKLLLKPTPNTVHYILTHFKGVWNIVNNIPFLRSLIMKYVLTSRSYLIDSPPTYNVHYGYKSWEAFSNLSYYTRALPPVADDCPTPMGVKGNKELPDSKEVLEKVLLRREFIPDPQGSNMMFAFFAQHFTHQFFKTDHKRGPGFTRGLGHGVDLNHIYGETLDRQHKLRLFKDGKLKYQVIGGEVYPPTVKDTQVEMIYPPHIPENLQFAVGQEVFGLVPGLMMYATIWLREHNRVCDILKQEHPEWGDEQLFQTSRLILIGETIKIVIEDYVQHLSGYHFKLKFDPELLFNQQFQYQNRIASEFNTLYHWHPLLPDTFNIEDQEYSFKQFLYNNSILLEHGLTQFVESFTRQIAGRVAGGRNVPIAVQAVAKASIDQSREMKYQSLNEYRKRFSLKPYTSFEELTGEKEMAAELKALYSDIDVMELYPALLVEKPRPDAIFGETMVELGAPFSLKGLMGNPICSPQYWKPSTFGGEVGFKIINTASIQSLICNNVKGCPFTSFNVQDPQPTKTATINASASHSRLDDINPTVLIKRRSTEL
Assay: Evaluation of COX-2 activity: PGE2 formation in aspirin-treated, LPS-stimulated mouse peritoneal macrophages
Assay type: cell-based
Procedure: Evaluation of in vitro COX-2 and COX-1 Activity [J. Pharmacol. Exp. Ther. 166, 96 (1969)]
The abdominal skin of a C57BL/6 mouse was sanitized with 70% aqueous ethanol, and was removed without damaging the peritoneum. 5 ml of cold phosphate buffer solution (PBS) was then injected into the abdominal cavity. After a minute, the peritoneal fluid containing the macrophages was collected using a syringe and a needle. The collected fluid was centrifuged for 5 min at 1500 rpm to afford pellets of cells. The pellets were then dispersed in the RPMI-1640 culture medium containing 100 units/ml penicillin and 100 μg/ml streptomycin.
The pellets dispersed as above were treated with 500 μM aspirin in order to knock out the activity of the COX-1 enzymes in the cells. The suspension was then diluted with the RPMI-1640 medium to contain 1×10^6 cells/ml. […] The amount of PGE2 present in the collected solution was determined either by a known radio-immuno assay or by a known enzyme-immunoassay [Methods in Enzymol. […] The extent of COX-2 inhibition by a compound of the present invention was calculated by assuming, that the amount of PGE2 formed with the treatment of 10 μg/ml arachidonic acid was used is the maximum possible amount of PGE2, and that the amount of PGE2 formed without the treatment of arachidonic acid is the minimum possible amount of PGE2. […]

Row | IC50, μg/ml COX-2 [µg/mL] | Structure (SMILES)
1 | 0.3 (≈ 0.796 µM) | CC1(C)OC(c2ccc(S(C)(=O)=O)cc2)=C(c2ccccc2Cl)C1=O [Example 69]
2 | 0.05 (≈ 0.132 µM) | CC1(C)OC(c2ccc(S(C)(=O)=O)cc2)=C(c2ccc(F)c(F)c2)C1=O [Example 80]

In brackets after ≈: the same amount, converted by molar mass.
